# AlphaSeq binding of Ab-14 light chain variants to a spike HR2 peptide

The measurements come from Li et al. 2023 (doi:10.1038/s41467-023-39022-2) through the FLAb antibody collection.

Binding partner: SARS-CoV-2 spike HR2 peptide, sequence PDVDLGDISGINAS.

Parent scFv Ab-14: VH joined to VL by the linker GGGGSGGGGSGGGGS. Changes lie in the light chain CDRs alone.
VH: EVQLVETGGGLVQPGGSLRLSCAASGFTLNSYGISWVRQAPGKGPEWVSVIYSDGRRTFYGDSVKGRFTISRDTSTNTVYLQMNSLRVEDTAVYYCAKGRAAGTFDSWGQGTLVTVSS
VL: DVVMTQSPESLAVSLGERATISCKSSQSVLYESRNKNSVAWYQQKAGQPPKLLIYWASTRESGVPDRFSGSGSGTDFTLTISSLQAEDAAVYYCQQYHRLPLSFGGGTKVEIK

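The starting antibody came from a phage panning campaign against this peptide. The variants were designed computationally from a first round of random CDR variants and then made and measured. Their group label is 14L_En_Gen (En: ensemble of fine-tuned language models; Gen: genetic algorithm). The scFvs were displayed on barcoded MATa yeast, the peptide on MATalpha yeast. The frequency of each diploid, read from paired DNA barcodes, reflects how well the two displayed proteins bind. The ratio of observed to expected reads was calibrated, replicate by replicate, on BCL2-family standards whose Kd was known from biolayer interferometry. There are six technical replicates.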

The parent's light chain CDRs are KSSQSVLYESRNKNSVA, WASTRES, QQYHRLPLS; each variant's own CDRs replace them letter for letter.
Numbers give log10(Kd / nM), so 0 is 1 nM and 3 is 1 µM. Smaller is tighter.
The mean shown is taken over the replicates in which the pair was detected.
"ND" marks a missing value. The strain was present, yet no cells mated with the target were sequenced in that replicate, which points to weak or no binding.
Three control strains display no target. For all light chain designs, 4% of the pairings with them gave a signal, with a median of 2.64 and one signal in twenty below 1.59, so weak values seen in few replicates may be background. For each scFv, signals with the empty controls are counted beside the result, with their mean in brackets.
A sequence measured in both rounds can read differently, since the two assays cover different ranges.
The parent sequence was in this pool as ten entries: three were never detected, three once, and four in most replicates, with averages from 0.34 to 2.37.
The authors' rule: three or more of the six replicates give a measured affinity, fewer mean a poor binder.

{"CDR-L1": "HLGLATMVESSVRNSVA", "CDR-L2": "NNSTREE", "CDR-L3": "QQYDRLPLS", "replicates, log10 nM": "ND / ND / ND / 1.33 / ND / 2.01", "log10 Kd (nM), mean": "1.67", "empty controls": "1/18 (2.73)"}
{"CDR-L1": "HITYGMNVAGRHSSSIA", "CDR-L2": "QAEERQK", "CDR-L3": "QQYDRLPLS", "replicates, log10 nM": "0.81 / 0.82 / 0.67 / 0.04 / 0.51 / 0.62", "log10 Kd (nM), mean": "0.58", "empty controls": "0/18"}
{"CDR-L1": "HMSMLTLQGMRQRNSVA", "CDR-L2": "QMTTREN", "CDR-L3": "QQYDHLPLS", "replicates, log10 nM": "2.69 / 1.09 / 1.38 / 1.07 / 0.75 / 1.34", "log10 Kd (nM), mean": "1.39", "empty controls": "0/18"}
{"CDR-L1": "MMSQVTMSGMRHRNNVA", "CDR-L2": "QTSAREP", "CDR-L3": "QQYDRLPLI", "replicates, log10 nM": "0.75 / 1.15 / 0.96 / 0.93 / 1.18 / 1.29", "log10 Kd (nM), mean": "1.04", "empty controls": "0/18"}
{"CDR-L1": "MMSQVTGQGTRHRNNVA", "CDR-L2": "QTSEREP", "CDR-L3": "QQYDRLPLI", "replicates, log10 nM": "2.72 / 1.79 / 0.99 / 1.55 / 1.71 / 1.93", "log10 Kd (nM), mean": "1.78", "empty controls": "1/18 (3.35)"}
{"CDR-L1": "HITMGMYVSGRYKSNIA", "CDR-L2": "QAETRMK", "CDR-L3": "QQYDRLPLM", "replicates, log10 nM": "0.78 / 0.47 / 0.38 / 0.80 / 0.82 / 0.58", "log10 Kd (nM), mean": "0.64", "empty controls": "0/18"}
{"CDR-L1": "KLSMVTGHLSMAKNNVA", "CDR-L2": "EMVTRCK", "CDR-L3": "QQYNRLPLS", "replicates, log10 nM": "0.41 / 0.20 / 0.41 / 0.14 / 0.09 / 0.65", "log10 Kd (nM), mean": "0.32", "empty controls": "0/18"}
{"CDR-L1": "MISQIYNMGQFAINSVA", "CDR-L2": "QASIRNA", "CDR-L3": "QQYDRLPLA", "replicates, log10 nM": "0.89 / 0.71 / 0.42 / 0.37 / 0.78 / 0.86", "log10 Kd (nM), mean": "0.67", "empty controls": "0/18"}
{"CDR-L1": "IVTQLMLWGWHAKNSIA", "CDR-L2": "EAQTRIN", "CDR-L3": "QQYDRLPLM", "replicates, log10 nM": "1.99 / ND / ND / 1.35 / 2.18 / ND", "log10 Kd (nM), mean": "1.84", "empty controls": "1/18 (2.04)"}
{"CDR-L1": "TISMHTSLFSQTINNVA", "CDR-L2": "EVSTREQ", "CDR-L3": "QQYDRLPLA", "replicates, log10 nM": "0.78 / 0.68 / 0.45 / 0.56 / 0.49 / 0.56", "log10 Kd (nM), mean": "0.59", "empty controls": "0/18"}
{"CDR-L1": "KLGATMNTESTKRNNVA", "CDR-L2": "DLVEREN", "CDR-L3": "QQYFRLPLS", "replicates, log10 nM": "0.44 / 0.13 / 0.24 / 0.46 / 0.69 / 0.53", "log10 Kd (nM), mean": "0.41", "empty controls": "0/18"}
{"CDR-L1": "KISQMARVGSTKQNSIA", "CDR-L2": "EEATRCD", "CDR-L3": "QQYHRLPLF", "replicates, log10 nM": "0.79 / 0.59 / 0.82 / 0.75 / 0.74 / 0.61", "log10 Kd (nM), mean": "0.71", "empty controls": "1/18 (2.47)"}
{"CDR-L1": "KVSEFMKGLTMRKDSIA", "CDR-L2": "DNNTRGS", "CDR-L3": "QQYDRLPLS", "replicates, log10 nM": "1.56 / 1.39 / 1.21 / 1.50 / 1.35 / 1.83", "log10 Kd (nM), mean": "1.47", "empty controls": "0/18"}
{"CDR-L1": "IVSQLMLWGLHAKQSIA", "CDR-L2": "EAVTRLN", "CDR-L3": "QQYDRLPLF", "replicates, log10 nM": "1.53 / ND / 1.15 / ND / 3.29 / 4.20", "log10 Kd (nM), mean": "2.54", "empty controls": "0/18"}
{"CDR-L1": "KIGMTLNMMAHKKNNVA", "CDR-L2": "DLVTREN", "CDR-L3": "QQYHRLPLS", "replicates, log10 nM": "1.79 / 0.44 / 0.42 / 0.16 / 0.12 / 1.03", "log10 Kd (nM), mean": "0.66", "empty controls": "0/18"}
{"CDR-L1": "TISQVLNTLTRTGNNVA", "CDR-L2": "DLAERED", "CDR-L3": "QQYFRLPLS", "replicates, log10 nM": "0.57 / 0.55 / 0.64 / 0.66 / 0.71 / 0.63", "log10 Kd (nM), mean": "0.63", "empty controls": "1/18 (1.78)"}
{"CDR-L1": "KLVNFMNRGTHHTSNIA", "CDR-L2": "DAQNRSD", "CDR-L3": "QQYARLPLA", "replicates, log10 nM": "0.71 / 1.10 / 1.08 / 0.72 / 0.86 / 1.20", "log10 Kd (nM), mean": "0.94", "empty controls": "2/18 (2.74)"}
{"CDR-L1": "KLTMITGLEKVSKNNVA", "CDR-L2": "EMETREQ", "CDR-L3": "QQYNRLPLS", "replicates, log10 nM": "0.78 / 0.26 / 0.09 / 0.34 / 0.03 / 0.34", "log10 Kd (nM), mean": "0.31", "empty controls": "1/18 (3.19)"}
{"CDR-L1": "KIGMTLNQQMKKKNNVA", "CDR-L2": "DLVMREN", "CDR-L3": "QQYHRLPLS", "replicates, log10 nM": "0.51 / 0.81 / 0.51 / 0.58 / 0.38 / 0.54", "log10 Kd (nM), mean": "0.56", "empty controls": "0/18"}
{"CDR-L1": "NIYQAMHTLSQMKDNVA", "CDR-L2": "DVNERGM", "CDR-L3": "QQYFRLPLS", "replicates, log10 nM": "0.20 / 0.30 / 0.20 / 0.06 / 0.02 / 0.15", "log10 Kd (nM), mean": "0.15", "empty controls": "1/18 (3.64)"}
{"CDR-L1": "KLVQFMNRGTHMTSNIA", "CDR-L2": "DAQNRSD", "CDR-L3": "QQYARLPLA", "replicates, log10 nM": "0.26 / 0.41 / -0.06 / 0.18 / 0.59 / 0.71", "log10 Kd (nM), mean": "0.35", "empty controls": "0/18"}
{"CDR-L1": "MISQLWNMGQFAINSVA", "CDR-L2": "QASERSE", "CDR-L3": "QQYDRLPLM", "replicates, log10 nM": "1.84 / 1.33 / 1.24 / 1.14 / 1.63 / 1.14", "log10 Kd (nM), mean": "1.39", "empty controls": "0/18"}
{"CDR-L1": "MLSQMWALGNKVKNSVA", "CDR-L2": "QASMRFN", "CDR-L3": "QQYDRLPLI", "replicates, log10 nM": "1.96 / 1.12 / 1.17 / 1.69 / 0.97 / 1.29", "log10 Kd (nM), mean": "1.37", "empty controls": "0/18"}

The 3 strongest on average among those seen in every replicate, once more:

{"CDR-L1": "NIYQAMHTLSQMKDNVA", "CDR-L2": "DVNERGM", "CDR-L3": "QQYFRLPLS", "replicates, log10 nM": "0.20 / 0.30 / 0.20 / 0.06 / 0.02 / 0.15", "log10 Kd (nM), mean": "0.15", "empty controls": "1/18 (3.64)"}
{"CDR-L1": "KLTMITGLEKVSKNNVA", "CDR-L2": "EMETREQ", "CDR-L3": "QQYNRLPLS", "replicates, log10 nM": "0.78 / 0.26 / 0.09 / 0.34 / 0.03 / 0.34", "log10 Kd (nM), mean": "0.31", "empty controls": "1/18 (3.19)"}
{"CDR-L1": "KLSMVTGHLSMAKNNVA", "CDR-L2": "EMVTRCK", "CDR-L3": "QQYNRLPLS", "replicates, log10 nM": "0.41 / 0.20 / 0.41 / 0.14 / 0.09 / 0.65", "log10 Kd (nM), mean": "0.32", "empty controls": "0/18"}